# Measured values: PMC3896271 (Beilstein Journal of Organic Chemistry, 2013)
# Amino acid sequences for entries named in this document (tags omitted). A change or cut given only in a name is not applied to a line headed by its entry.
# UniProt P32300: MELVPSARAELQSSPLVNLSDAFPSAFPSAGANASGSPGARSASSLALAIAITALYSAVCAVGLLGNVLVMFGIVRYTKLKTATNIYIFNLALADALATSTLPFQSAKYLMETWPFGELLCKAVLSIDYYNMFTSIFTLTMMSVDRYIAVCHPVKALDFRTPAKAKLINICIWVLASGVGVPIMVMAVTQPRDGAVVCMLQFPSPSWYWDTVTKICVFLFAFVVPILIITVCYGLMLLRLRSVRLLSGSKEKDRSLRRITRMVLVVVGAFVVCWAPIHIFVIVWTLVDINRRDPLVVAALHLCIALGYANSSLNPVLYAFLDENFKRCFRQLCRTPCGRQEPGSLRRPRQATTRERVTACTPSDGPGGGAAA
# Molecular target: mouse δ opioid receptor (Mus musculus, UniProt P32300)
# Settings: 3 μM, positive controls
substance,measurement,value
SNC80,displacement of [3H]diprenorphine,> 90%
